Values quoted from earlier work as cited in patent US20140242590A1, “FLT3 MUTATIONS ASSOCIATED WITH DRUG RESISTANCE IN AML PATIENTS HAVING ACTIVATING MUTATIONS IN FLT3” (THE REGENTS OF THE UNIVERSITY OF CALIFORNIA, priority 2011, published 2014).

Test system: relapsed/refractory FLT3-ITD+ AML patients
Details: interim analysis of 53 patients evaluable for efficacy; cited from earlier work

For `CC(C)(C)c1cc(NC(=O)Nc2ccc(-c3cn4c(n3)sc3cc(OCCN5CCOCC5)ccc34)cc2)no1.Cl.Cl` [AC220, N-(5-tert-butyl-isoxazol-3-yl)-N′-{4-[7-(2-morpholin-4-yl-ethoxy)imidazo[2,1-b][1,3]benzothiazol-2-yl]phenyl}urea dihydrochloride], the “composite complete remission (<5 percent bone marrow blasts) rate” value is given as 45%.
